# AlphaSeq binding of Ab-14 light chain variants to a spike HR2 peptide

Target: peptide PDVDLGDISGINAS, taken from heptad repeat 2 (HR2) of SARS-CoV-2 spike.

Ab-14 is the parent antibody, in scFv form: VH, then a (GGGGS)3 linker, then VL. The heavy chain is unchanged in all variants.
VH: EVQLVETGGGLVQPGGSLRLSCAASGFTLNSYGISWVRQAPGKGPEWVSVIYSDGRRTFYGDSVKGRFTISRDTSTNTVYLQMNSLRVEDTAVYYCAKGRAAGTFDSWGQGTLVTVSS
VL: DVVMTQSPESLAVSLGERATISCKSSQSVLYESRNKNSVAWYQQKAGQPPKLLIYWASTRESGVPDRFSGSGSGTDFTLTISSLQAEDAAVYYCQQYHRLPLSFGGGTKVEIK

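In library AAYL50, one, two or three CDR residues were substituted; doubles and triples were drawn at random. In AlphaSeq, yeast of one mating type display the scFv and yeast of the other type display the target. Pairs that bind mate more often; barcode pairs of the diploids are counted by sequencing. Read counts were normalised to the haploid input and turned into Kd by a linear fit to BCL2-family pairs of known affinity, for each replicate. The assay was run in three technical replicates.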

Changes read parent residue, position, new residue, counted from the first residue of the VL shown. The Kd shown is the geometric mean over detected replicates; a lower Kd is a better binder. An entry "not detected" has no value in the source: the pair was not observed among the diploids in any replicate. This suggests poor binding but is not conclusive. Three control strains display no target. For library AAYL50, 18% of the pairings with them gave a signal, with a median of 15 µM and one signal in twenty below 970 nM, so weak values seen in few replicates may be background. In this assay the parent's reference entry averaged 4.4 nM; its copy inside this library read 48 nM.

| changes | Kd | seen in |
|---|---|---|
| V29F/V39W/T59K | 7.3 µM | 2 of 3 |
| V29W/K36M/P101N | 1.3 µM | 2 of 3 |
| R34W/Y97N/L102Y | 4.6 nM | 3 of 3 |
| E32D/H98P/R99A | 14 µM | 1 of 3 |
| K24Y/W56C/A57P | 26 µM | 3 of 3 |
| N35W/N37K/W56A | 2.3 nM | 3 of 3 |
| E32G/R60E/Y97A | not detected | 0 of 3 |
| Q27Y/V29T/V39T | not detected | 0 of 3 |
| N37Q/W56N/S62V | 4.2 nM | 3 of 3 |
| S25K/T59P/E61T | 22 µM | 3 of 3 |
| V29T/E32R | not detected | 0 of 3 |
| S26D/N35P/E61V | 3.7 nM | 3 of 3 |
| R60W/Q96D/L100H | 6.4 µM | 2 of 3 |
| W56K/R99Y/P101Q | not detected | 0 of 3 |
| Y31M/N35Y/A40W | not detected | 0 of 3 |
| S25F/N37A/L102S | 13 nM | 3 of 3 |
| S33D/S58K/Q95H | 74 µM | 1 of 3 |
| L30K/S62V/Q96C | 800 nM | 1 of 3 |
| K24S/L30Y/N37G | 90 nM | 3 of 3 |
| S38Y/E61I/Q95V | not detected | 0 of 3 |
| A57W/Q96P/L100Y | not detected | 0 of 3 |
| Y31L/W56M/R99W | 53 nM | 3 of 3 |
| R60C/E61V/P101Y | 4.9 µM | 1 of 3 |
| S33F/R34C/E61C | 150 nM | 3 of 3 |
| N37H/A57V/T59H | 430 nM | 1 of 3 |
| V29T/N35F/S103C | 55 nM | 3 of 3 |
| K24E/R99P/S103E | not detected | 0 of 3 |
| A40G/R99W | 110 µM | 2 of 3 |
| E61F/Q96N/S103G | 2.0 µM | 1 of 3 |
| K36I/R99M/L102A | not detected | 0 of 3 |
| S58H/Q96L | 3.6 µM | 3 of 3 |
| V29D/S62Q | 2.6 nM | 3 of 3 |
| S28E/K36V/V39M | 390 nM | 3 of 3 |
| K24V/V39M/Q96R | 2.2 µM | 2 of 3 |
| K36E/S38V/S62L | not detected | 0 of 3 |
| K24D/V29S/S58Y | 15 µM | 2 of 3 |
| L30N/T59R/H98Q | not detected | 0 of 3 |

Continued, with the values leading:

| Kd | seen in | changes |
|---|---|---|
| not detected | 0 of 3 | V39C/A40N/Q96W |
| not detected | 0 of 3 | R34A/R60D |
| not detected | 0 of 3 | E32S/R99S/S103K |
| 5.9 nM | 3 of 3 | Q27T/R99M/L100R |
| 1.1 µM | 3 of 3 | S33D/S38R/L100F |
| 29 nM | 3 of 3 | L30G/Y97P |
| not detected | 0 of 3 | L30C/V39C/R60P |
| 2.9 µM | 3 of 3 | Q27W/K36A/S58D |
| 770 nM | 1 of 3 | E32R/P101N |
| 27 µM | 2 of 3 | K36E/S38V/L100W |
| 870 pM | 3 of 3 | S25L/S103E |
| not detected | 0 of 3 | L30M/S62N/Y97V |
| not detected | 0 of 3 | S38W/A40M/S62G |
| 92 nM | 3 of 3 | S33Y/R34D/L102A |
| not detected | 0 of 3 | T59Q/S62H/Y97T |
| 1.2 µM | 3 of 3 | S58V/H98R |
| 53 µM | 2 of 3 | N35T/T59I/Y97T |
| 17 µM | 1 of 3 | N37P/V39K/L100V |
| 1.7 µM | 2 of 3 | S28W/Y31T/E61K |
| 440 nM | 3 of 3 | E32Q/N37W |
| not detected | 0 of 3 | V29S/N35F/P101G |
| 30 nM | 3 of 3 | V29F/E32H/L102F |
| not detected | 0 of 3 | N37L/T59S/P101C |
| not detected | 0 of 3 | S38A/Q95L/S103I |
| 130 µM | 1 of 3 | S28W/K36V/S38C |
| 7.3 nM | 3 of 3 | R34E/W56F/T59N |
| 940 pM | 3 of 3 | S33G/W56S/H98E |
| 3.0 µM | 1 of 3 | L30H/R60N/S62F |
| 13 µM | 1 of 3 | Q27M/A57M/L102K |
| not detected | 0 of 3 | Q27R/N35V |
| 36 nM | 3 of 3 | Q27D/V29D/R99V |
| not detected | 0 of 3 | W56H/A57N/Q96H |
| not detected | 0 of 3 | Y31A/A40D/E61K |
| 1.6 nM | 3 of 3 | R34S/L102I/S103C |
| not detected | 0 of 3 | K36V/T59P/Q95V |
| 98 nM | 3 of 3 | V39F/W56R/S103L |
| not detected | 0 of 3 | S26I/W56I/E61S |

Excerpt, the final 8 entries:

changes,Kd,seen in
Q27R/N35V,not detected,0 of 3
Q27D/V29D/R99V,36 nM,3 of 3
W56H/A57N/Q96H,not detected,0 of 3
Y31A/A40D/E61K,not detected,0 of 3
R34S/L102I/S103C,1.6 nM,3 of 3
K36V/T59P/Q95V,not detected,0 of 3
V39F/W56R/S103L,98 nM,3 of 3
S26I/W56I/E61S,not detected,0 of 3

Values reported by Engelhart et al. 2022, doi:10.1038/s41597-022-01779-4 (FLAb copy).